SMILES strings stand for the structures. This is a selection; strong and weak results do not stand in their true shares. Calls of active or inactive are those of the source. Cut-off read from the data, not from the text of the source: active = inhibition above about 75%; inconclusive = no clear call, values can overlap the other calls; inactive = below that; tested in HMLE shEcad cells.

The nature of this test: growth suppression of cancer stem-like cells – cell-based, luminescence, primary screen (AID 2717). Particulars: cancer stem cell-like cells viability, at 7.5 µM, stronger effect = higher value.
In the case of `O=[N+]([O-])c1ccc(O)c(/C=N/Nc2ccc([N+](=O)[O-])cc2[N+](=O)[O-])c1`, the inhibition – broadly, the change of the read-out against control, counted positive when it falls – was active: 78.4%.
